US8303964B2, “Viable non-toxic gram-negative bacteria” (priority 2006, dated 2012)

Assays:
[1] = system: KPM22; type: cell-based, E. coli; conditions: MIC BW30270 versus MIC KPM22
Procedure: The antibiotics used were from Sigma with the exception of cephaloridine, which was obtained from MicroSource Discovery Systems. Antibiotics were chosen based on their varying mode of action and entry into the cell. […] Colonies from LB agar plate were scraped and suspended in media (˜10^4 cells per mL) with varying concentrations of antibiotics. Cultures were incubated with shaking (˜200 rpm) at 37° C. for 18 hours at which point growth was scored by visual inspection.

[2] = system: BW30270; experiment: microbe, parasite or virus in culture; type: cell-based, E. coli K-12; conditions: Escherichia coli; LB media, 37° C., 18 hours; lowest concentration that completely inhibited growth; read-out: Minimum Inhibitory Concentration BW30270
Procedure: This example describes Minimum Inhibitory Concentration (MIC) Determinations used in experiments conducted during the course of the present invention. The antibiotics used were from Sigma with the exception of cephaloridine, which was obtained from MicroSource Discovery Systems. Antibiotics were chosen based on their varying mode of action and entry into the cell. The MICs of all antibiotics and drugs studied were measured in LB media using the standard serial microdilution method as described (see, e.g., R. Vuorio, M. Vaara, Antimicrob. Agents Chemother. 36, 826 (1992); herein incorporated by reference in its entirety). Colonies from LB agar plate were scraped and suspended in media (˜10^4 cells per mL) with varying concentrations of antibiotics. Cultures were incubated with shaking (˜200 rpm) at 37° C. for 18 hours at which point growth was scored by visual inspection.

Compound | Fold Difference in MIC [1] [fold] | MIC [2] [µg/mL]
CN[C@H](CC(C)C)C(=O)N[C@H]1C(=O)N[C@@H](CC(N)=O)C(=O)N[C@H]2C(=O)N[C@H]3C(=O)N[C@H](C(=O)N[C@H](C(=O)O)c4cc(O)cc(O)c4-c4cc3ccc4O)[C@H](O)c3ccc(c(Cl)c3)Oc3cc2cc(c3O[C@@H]2O[C@H](CO)[C@@H](O)[C@H](O)[C@H]2O[C@H]2C[C@](C)(N)[C@H](O)[C@H](C)O2)Oc2ccc(cc2Cl)[C@H]1O [Vancomycin] | 8 | 
CO[C@@H]1[C@@H](OC(N)=O)[C@@H](O)[C@H](Oc2ccc3c(O)c(NC(=O)c4ccc(O)c(CC=C(C)C)c4)c(=O)oc3c2C)OC1(C)C [Novobiocin] |  | 256 (≈ 418 µM)
CC[C@H]1OC(=O)[C@H](C)[C@@H](O[C@H]2C[C@@](C)(OC)[C@@H](O)[C@H](C)O2)[C@H](C)[C@@H](O[C@@H]2O[C@H](C)C[C@H](N(C)C)[C@H]2O)[C@](C)(O)C[C@@H](C)C(=O)[C@H](C)[C@@H](O)[C@]1(C)O [Erythromycin] |  | 128 (≈ 174 µM)

≈ marks a conversion by molar mass, not a printed value.
